# Antibody variant affinities, Ab-14 heavy chain, assay B

Antigen: PDVDLGDISGINAS, a 14-residue peptide of the SARS-CoV-2 spike HR2 region.

Each scFv is VH, the linker GGGGSGGGGSGGGGS, VL, as in the parent Ab-14, and differs from it in the CDRs of the heavy chain only.
VH: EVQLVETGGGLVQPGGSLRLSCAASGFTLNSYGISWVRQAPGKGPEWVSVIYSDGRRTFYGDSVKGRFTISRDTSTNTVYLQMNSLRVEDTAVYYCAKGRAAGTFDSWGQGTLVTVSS
VL: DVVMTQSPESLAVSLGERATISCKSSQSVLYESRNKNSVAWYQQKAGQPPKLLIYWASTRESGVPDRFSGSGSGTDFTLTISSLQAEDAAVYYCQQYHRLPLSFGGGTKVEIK

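This is the validation round: designs drawn from the data on random variants, tested in the same kind of assay. Group labels follow the data file (Ctrl: baseline library sampled from a position-specific scoring matrix, with some repeated check sequences; Rand: our label for a block that the file lists under HC and that is probably the random mutants of the ten best first-round binders; En: ensemble of fine-tuned language models; GP: Gaussian process model; GPLM: also part of the Gaussian process libraries; HC: hill climbing; Gen: genetic algorithm; Gibbs: Gibbs sampling; a sequence that several methods proposed may carry one label only). AlphaSeq pools MATa yeast showing the antibodies with MATalpha yeast showing the peptide. Pairs that bind mate more often; barcode pairs of the diploids are counted by sequencing. Scores were corrected for input abundance and mapped to Kd with protein pairs of known affinity run in the same pool. Mating was done six times.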

The parent's heavy chain CDRs are GFTLNSYGIS, VIYSDGRRTFYGDSVK, GRAAGTFDS; each variant's own CDRs replace them letter for letter.
Kd is apparent (estimated from mating counts) and averaged on the log scale over replicates with a signal. Smaller is tighter.
Where no diploid with the target was found in any replicate, the entry reads "nd": below detection, most likely a poor binder, though not proof of it.
Empty control strains, which show no peptide, gave a signal in 1% of pairings with all heavy chain designs; the median was 120 nM and 95% of these signals were weaker than 7.0 nM. No background was subtracted.
In the paper, a design with two or fewer of six values counts as a poor binder.
The range of this assay differs from that of the first round, and the authors advise against merging the two.

| CDR-H1 | CDR-H2 | CDR-H3 | group | Kd | detected |
|---|---|---|---|---|---|
| GFDLNEYGIS | VIYADGRRTFYSDSVK | GTQGGTFDM | En_HC | 880 pM | 6/6 |
| MFSLNSYGIS | VIYSDGRRTFYGDSVK | GQIAGTFDS | GP_Gibbs | nd | 0/6 |
| GFDLDEYGIS | VIYADGMRTAYADNVK | GNVAGTFDQ | En_Gen | 160 pM | 6/6 |
| GFSLNSYGIS | VIYSDGRRTFYGDSVK | GKTAGTFDQ | GPLM_Gibbs | 1.5 nM | 6/6 |
| GFTLNQYGIS | VIYSDGRRTFLSDSVK | GRAAGFFDS | Rand | nd | 0/6 |
| GFDLNEYGIS | VIYADGRRTVYADSVK | GQNAGTFDV | En_Gen | 2.0 nM | 6/6 |
| GFTLNEYGIS | VIYSDGRRTFYIDSVK | GRAGGTFDS | GP_HC | 10 nM | 5/6 |
| GFDLQSYGIS | VIYSDGRRTFYQDSVK | GRAAGTFDS | Ctrl | 29 nM | 5/6 |
| GNTLNEYGIS | VIYSDGRRTFYIDSVK | GRCAGTFDS | GP_HC | nd | 0/6 |
| GFDLNEYGIS | VIYADGQRTFYIDSVK | GEAAGTFDM | En_HC | 190 pM | 6/6 |
| GFNLNEYGIS | VIYADGMRTFYSNSVK | GEAAGTFDV | En_HC | 350 pM | 6/6 |
| GFDLNEYGIS | VIYADGKRTAYADDVK | GNNAGTFDI | En_Gen | 630 pM | 6/6 |
| GFSLNSYGIS | VIYADGRRTFYGDSVK | GNAAGTFDS | GPLM_Gen | 1.2 nM | 6/6 |
| GFTLNQYGIS | VIYSDGRRTFYSDSVK | SRAAGTFDS | Rand | nd | 0/6 |
| GFDLNSYGIS | VIYSDGRRTFYADSVK | GRAAGHFNS | GPLM_HC | 850 nM | 1/6 |
| GFALNSYGIS | VIYSDGRRTFYHDSVK | GQAAGTFDS | Ctrl | 6.7 nM | 6/6 |
| GFVLNEYGIS | VIYSDGRRTQYIDSVK | GRAAGTFDS | GP_HC | 52 nM | 4/6 |
| GFDLNEYGIS | VIYADGRRTFYTDSVK | GSVAGTFDL | En_HC | 150 pM | 6/6 |
| GFLLNDYGIS | VIYSDGRRTFYKDSVK | GQAAGTFDS | GP_HC | 4.7 nM | 6/6 |
| GFDLDEYGIS | VIYADGRRTAYADSVK | GTNAGTFDV | En_Gen | 130 pM | 6/6 |
| GFTLNSYGIS | VIYSDGRRTAMGDSVK | GRARGTFDS | Ctrl | 75 nM | 1/6 |
| GFTLNDYGIS | VIYSDGRRTFYSDSVK | GRSAGTFDS | GP_HC | 2.1 nM | 6/6 |
| GFDLNEYGIS | VIYADGRRTAYADSVK | GANAGTFDM | En_Gen | 860 pM | 6/6 |
| GFNLNEYGIS | VIYADGMRVRYANNFK | GYLNTTLMV | En_Gibbs | nd | 0/6 |
| GFTLNEYGIS | VIYSDGRRTMYTDSVK | GREAGTFDS | GP_HC | 1.2 nM | 6/6 |
| GFTLNSYGIS | VIYSDGRRTFYGDSVK | GQQAGTFTS | Ctrl | nd | 0/6 |
| KFTLTSYGIS | VIYSDGTRTFYADSVK | GRAAGTFDK | Ctrl | 240 nM | 1/6 |
| GFNLNSYGIS | VIYSDGRRTFYGDSVK | GRAAGTFIS | Ctrl | nd | 0/6 |
| GFDLNSYGIS | VIYSDGRRTMYTDSVK | GQAAGTFDS | GP_Gibbs | 4.2 nM | 6/6 |
| GKDLEEYGIS | VIYADGMRTAYKESVK | GQVAGIGKF | En_Gibbs | nd | 0/6 |
| KFTLNEYGIS | VIYSDGRRTFYGDSVK | GRLAGTFDS | GP_HC | 14 nM | 3/6 |
| GFTLNDYGIS | VIYSDGRRTFYKDSVK | GRAAGTFVS | GP_HC | nd | 0/6 |
| GFTVNSYGIS | VIYSDGRRTFYGDSVK | GRHAKRFDS | Ctrl | nd | 0/6 |
| GFDLNSYGIS | VIYSDGRRTFYLDSVK | GQVAGTFDS | GP_HC | 2.5 nM | 6/6 |
| GFELNTYGIS | VIYSDGRRTFYGDSVK | GKAAGTFDS | GPLM_Gen | 21 nM | 6/6 |
| GFELNSYGIS | VIYSDGQRTFYGDSVK | GQTAGTFDS | GP_Gen | 2.8 nM | 6/6 |
| GFELDEMGIS | VIYADGMRAAYSDNVK | GDNRGIFHM | En_Gibbs | nd | 0/6 |
| GFNLNEYGIS | VIYADGRRTFYADSVK | GQQAGTFDI | En_HC | 570 pM | 6/6 |
| GFDLEDYGIS | VIYADGRRTAYTDSVK | GEVAGTFDV | En_HC | 390 pM | 6/6 |
| GFHLNDYGIS | VIYSDGRRTFYIDSVK | GRYAGTFDS | GP_HC | 150 nM | 2/6 |
| GFDLNEYGIS | VIYADGMRTAYADNVK | GNQAGTFDL | En_Gen | 560 pM | 6/6 |
| GFTLNDYGIS | VIYSDGRRTSYGDSVK | GGAAGTFDS | Ctrl | 2.1 nM | 6/6 |
| GFDLNEYGIS | VIYADGRRTQYIDSVK | GEEAGTFDL | En_HC | 730 pM | 3/6 |
| GFDLNEYGIS | VIYADGVRTAYADDVK | GQVAGTFDL | En_Gen | 420 pM | 6/6 |
| GFDLNEYGIS | VIYADGRRTFYADSVK | GNEAGTFNV | En_HC | 270 pM | 6/6 |
| GFDLNEYGIS | VIYADGRRTFYTDSVK | GAFAGTFDV | En_HC | 220 pM | 6/6 |
| GFALNSYGIS | VIYSDGRRTFYGDSVK | GRAAGSFDS | Ctrl | nd | 0/6 |
| GFTLNSYGIS | VIYADGRRTVYGDSVK | GRAAGTNKS | Rand | nd | 0/6 |
| GFTLNSYGVS | VIYSDGKRTDYGDSVK | GRAAGTFDS | Ctrl | nd | 0/6 |
| GFTLNSYGIS | VIYSDGRRTFYSDSVK | GRAGGTFDS | En_HC | 100 nM | 3/6 |
| GFSLNSYGIS | VIYSDGRRTFYGDDVK | GQAAGTFDT | GP_Gibbs | 1.3 nM | 6/6 |
| GFDLNEYGIS | VIYADGVRTFYADSVK | GQVAGTFDM | En_HC | 280 pM | 6/6 |
| GFTLESYGIS | VIYSDGRRTFYADDVK | GRTAGTFDS | GPLM_Gen | 1.0 nM | 6/6 |
| GFSLNEYGIS | VIYSDGRRTFYQDSVK | GRTAGTFDS | GPLM_Gen | 3.7 nM | 1/6 |
| GFDLEEQGIS | VIYADGKRAQYSANVK | GYQTGFIDV | En_Gibbs | nd | 0/6 |
| GFNLMEYGIS | VIYADGTRTAYADTVK | GKYVDTFVD | En_Gibbs | nd | 0/6 |
| GFTLNSYGIS | VIYSDGRRTFYDDSVK | GEQAGTFDH | Ctrl | 7.7 nM | 6/6 |

The opening 10 entries, copied out:

| CDR-H1 | CDR-H2 | CDR-H3 | group | Kd | detected |
|---|---|---|---|---|---|
| GFDLNEYGIS | VIYADGRRTFYSDSVK | GTQGGTFDM | En_HC | 880 pM | 6/6 |
| MFSLNSYGIS | VIYSDGRRTFYGDSVK | GQIAGTFDS | GP_Gibbs | nd | 0/6 |
| GFDLDEYGIS | VIYADGMRTAYADNVK | GNVAGTFDQ | En_Gen | 160 pM | 6/6 |
| GFSLNSYGIS | VIYSDGRRTFYGDSVK | GKTAGTFDQ | GPLM_Gibbs | 1.5 nM | 6/6 |
| GFTLNQYGIS | VIYSDGRRTFLSDSVK | GRAAGFFDS | Rand | nd | 0/6 |
| GFDLNEYGIS | VIYADGRRTVYADSVK | GQNAGTFDV | En_Gen | 2.0 nM | 6/6 |
| GFTLNEYGIS | VIYSDGRRTFYIDSVK | GRAGGTFDS | GP_HC | 10 nM | 5/6 |
| GFDLQSYGIS | VIYSDGRRTFYQDSVK | GRAAGTFDS | Ctrl | 29 nM | 5/6 |
| GNTLNEYGIS | VIYSDGRRTFYIDSVK | GRCAGTFDS | GP_HC | nd | 0/6 |
| GFDLNEYGIS | VIYADGQRTFYIDSVK | GEAAGTFDM | En_HC | 190 pM | 6/6 |

Source: Li et al. 2023 (doi:10.1038/s41467-023-39022-2), MIT Lincoln Laboratory and A-Alpha Bio; data file from the FLAb repository.